Source: PMC7751304 (Journal of chemical information and modeling, 2019)

tested on: low-efflux MDCK cell line; experiment: MDCK cell permeability; assay type: in vitro ADME, canine; conditions: permeability class (low/medium/high) from MDCK Papp

MDCK Class	SMILES
high	CC(C)C[C@@H]1NC(=O)[C@@H](CC(C)C)NC(=O)[C@@H](CC(C)C)NC(=O)[C@H]2CCCN2C(=O)[C@H](Cc2ccc(O)cc2)NC(=O)[C@@H](CC(C)C)NC1=O [compound 7]
high	CC(C)C[C@@H]1NC(=O)[C@H](CC(C)C)NC(=O)[C@@H](CC(C)C)NC(=O)[C@H]2CCCN2C(=O)[C@H](Cc2ccc(O)cc2)NC(=O)[C@@H](CC(C)C)NC1=O [compound 8]

Continued, compound first:

SMILES	MDCK Class
CC(C)C[C@@H]1NC(=O)[C@@H](CC(C)C)NC(=O)[C@H]2CCCN2C(=O)[C@H](Cc2ccc(O)cc2)NC(=O)[C@@H](CC(C)C)NC(=O)[C@@H](CC(C)C)NC1=O [compound 4]	medium
CC(C)C[C@@H]1NC(=O)[C@H](CC(C)C)NC(=O)[C@@H](CC(C)C)NC(=O)[C@@H](CC(C)C)NC(=O)[C@H]2CCCN2C(=O)[C@H](Cc2ccc(O)cc2)NC1=O [compound 5]	medium
CC(C)C[C@@H]1NC(=O)[C@H](CC(C)C)NC(=O)[C@@H](CC(C)C)NC(=O)[C@H]2CCCN2C(=O)[C@H](Cc2ccc(O)cc2)NC(=O)[C@H](CC(C)C)NC1=O [compound 6]	medium
